pIC50: −log10 of the molar value.
Experiments:
[1] = target: human recombinant GST cleaved CSNK1D (Homo sapiens (Human), UniProt P48730); assay: Purified enzyme assay (ADP-Glo Kinase Assay); format: biochemical; conditions: read-out: ADP-Glo CSNK1D AC50; 2 nM CSNK1D, peptide substrate 150 μM, ATP 20 μM, 45 minutes room temperature
[2] = target: human CSNK1D tagged with nanoluciferase (Homo sapiens (Human), UniProt P48730); assay: Whole Cell nBRET CSNK1D Binding Assay; conditions: read-out: CSNK1D BRET IC50; living CHO cells stably expressing human CSNK1D-nanoluciferase; NanoBret tracer 130 nM; 2 hours 37° C.

Protein sequences, listed by entry. Tags and fused reporters are not part of them.
UniProt P48730, whole entry: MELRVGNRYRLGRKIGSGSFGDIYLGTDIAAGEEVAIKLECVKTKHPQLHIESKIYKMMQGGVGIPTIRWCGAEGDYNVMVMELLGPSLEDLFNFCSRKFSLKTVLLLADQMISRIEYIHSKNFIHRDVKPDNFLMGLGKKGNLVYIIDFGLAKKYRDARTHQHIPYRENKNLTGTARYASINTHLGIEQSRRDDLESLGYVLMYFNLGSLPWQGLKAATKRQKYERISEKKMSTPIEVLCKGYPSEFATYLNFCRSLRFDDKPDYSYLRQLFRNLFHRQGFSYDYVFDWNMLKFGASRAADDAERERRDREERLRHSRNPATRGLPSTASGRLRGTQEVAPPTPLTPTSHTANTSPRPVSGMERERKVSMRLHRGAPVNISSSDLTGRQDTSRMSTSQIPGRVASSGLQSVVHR

Compound: Cn1cc(-c2ccnc3ccncc23)c(-c2ccc(F)cn2)n1
- AC50 [1]: 0.128 µM
- pIC50 [2]: 5.36

Reference: patent US20230339900A1, “CASEIN KINASE 1 DELTA MODULATORS” (Janssen Pharmaceutica NV, priority 2020, published 2023)
